## Apparent affinities of Ab-14 variants for a coronavirus HR2 peptide

Source: Engelhart et al. 2022 (doi:10.1038/s41597-022-01779-4), MIT Lincoln Laboratory and A-Alpha Bio; data file from the FLAb repository.

The target is the same throughout: PDVDLGDISGINAS, from the HR2 region of SARS-CoV-2 spike.

The variants keep the heavy chain, the linker and the frameworks of Ab-14 (scFv order VH, a (GGGGS)3 linker, VL).
VH: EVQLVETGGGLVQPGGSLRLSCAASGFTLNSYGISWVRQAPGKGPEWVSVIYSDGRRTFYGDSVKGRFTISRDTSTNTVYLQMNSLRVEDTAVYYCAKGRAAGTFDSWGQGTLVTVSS
VL: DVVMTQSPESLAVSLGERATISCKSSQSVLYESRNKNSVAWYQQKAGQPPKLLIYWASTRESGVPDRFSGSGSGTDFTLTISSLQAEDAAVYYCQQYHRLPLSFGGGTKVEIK

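Variants in AAYL50 differ from the parent at up to three CDR positions; double and triple changes were sampled at random. The scFvs were displayed on barcoded MATa yeast, the peptide on MATalpha yeast. After mating in shaken culture at 30 °C for 16 h, diploids were selected and their barcode pairs sequenced. Each replicate has its own calibration line, from reference interactions of the BCL2 family. Mating was done three times.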

The parent's light chain CDRs are KSSQSVLYESRNKNSVA, WASTRES, QQYHRLPLS; each variant's own CDRs replace them letter for letter.
Numbers give log10(Kd / nM), so 0 is 1 nM and 3 is 1 µM. Smaller is tighter.
Where no diploid with the target was found in that replicate, the entry reads "ND": below detection, most likely a poor binder, though not proof of it.
Nonspecific signal, from three strains lacking the peptide, appeared in 18% of pairings of library AAYL50, centred on 4.19 (5% of these signals below 2.99); values are not corrected for it. The control count says in how many pairings with the empty strains this scFv gave a signal, with their mean in brackets.
Parent in this assay: reference entry 0.65, copy in this library 1.68.

CDR-L1	CDR-L2	CDR-L3	log10 Kd (nM) by replicate	signal with controls
KSSQYVLYPSRNKNSVA	WASTLES	QQYHRLPLS	2.66 / 2.07 / 1.88	0 of 9
KSSQSVLYEKRNKNSVA	WASTRES	QYYHRLPLL	3.27 / ND / ND	0 of 9
KSSQSNLYESRNKNSVA	IASTRES	TQYHRLPLS	ND / ND / ND	4 of 9 (4.36)
KSSQSELYESRNKNSVA	WRSTRES	QGYHRLPLS	ND / 3.86 / 4.34	1 of 9 (3.12)
KSSQSVIYESRNKNSVA	HASTRES	QQYHRLHLS	3.36 / ND / 5.27	3 of 9 (3.88)
KLSQSVLYESRNKNSVA	WASTREV	QQYHRQPLS	0.67 / 0.78 / 0.70	1 of 9 (4.64)
KYSQSVLYESVNKNSVA	WASTRES	QQYHRLMLS	ND / 4.15 / ND	1 of 9 (4.73)
KSSQSVLYEFRNKNSAA	WASTRES	QQYHRAPLS	ND / 3.88 / ND	2 of 9 (3.60)
KYSQSVLYESRNKNSVA	NASTRES	QQYHRLNLS	0.62 / 0.92 / 1.13	3 of 9 (4.36)
KSSQSVLYHSYNKNSVA	WASTRES	QQYKRLPLS	0.64 / 0.73 / 0.78	1 of 9 (5.27)
KSSGSVLYESQNKNSVA	WASTRIS	QQYHRLPLS	0.66 / 0.86 / 0.81	6 of 9 (4.71)
KSSQSVLYESRNCNSVA	WASTRES	CQYHWLPLS	ND / ND / ND	0 of 9
KSQQSVLYESRNKNSVN	WASTRES	QQYHRGPLS	ND / ND / 4.70	3 of 9 (3.94)
KSSQSSLYESRNKNSVA	WANTRES	QQAHRLPLS	ND / ND / ND	0 of 9
KSSQSVLYESFNKNSVA	WASTRGS	QQYHVLPLS	2.04 / 2.04 / 2.83	1 of 9 (4.92)
KPSQSVLYESRNKNSVA	WRSTRES	QWYHRLPLS	5.46 / ND / ND	1 of 9 (2.49)
KSHQSVLYESRNKNHVA	WASTRYS	QQYHRLPLS	1.95 / 1.85 / 1.76	1 of 9 (3.99)
KSSQSVLYESANKNTVA	WASTRES	QQYHRLPLS	1.34 / 1.59 / 1.56	3 of 9 (4.83)
KSSQSVPYESRNKNSVA	WAVTRES	QQSHRLPLS	ND / ND / ND	1 of 9 (3.26)
CSSQSVLYECRNKNSVA	WASTRES	QFYHRLPLS	ND / ND / 4.17	0 of 9
KTSQSVLYDSRNKNNVA	WASTRES	QQYHRLPLS	-0.38 / -0.02 / -0.24	2 of 9 (3.96)
KSSPSVLYESRNKNSVA	WASTRES	QQYHRHVLS	1.53 / 1.41 / 1.92	2 of 9 (3.89)
KSSHSVWYESRNKNSVA	WASTRES	QQYHRLPSS	2.20 / 1.78 / 1.92	0 of 9
KSSQSVLYESRNQNSVA	WASTRGS	EQYHRLPLS	ND / ND / ND	1 of 9 (2.25)
KSAQSVLYESRKKNSVA	WASTRES	QQYHRLQLS	1.52 / 1.54 / 1.54	2 of 9 (5.23)
KSSQSVRYESRNKNSVA	WESTRES	QQYHSLPLS	1.85 / 2.38 / 2.45	0 of 9
HSSQSVLMESRNKNSVA	GASTRES	QQYHRLPLS	-0.26 / 0.10 / -0.13	5 of 9 (4.96)
KSNLSVLYESYNKNSVA	WASTRES	QQYHRLPLS	1.13 / 1.30 / 0.98	1 of 9 (4.50)
KSSQSGPYESRNKNSVA	WASTRHS	QQYHRLPLS	0.60 / 1.10 / 0.88	5 of 9 (5.15)
KSSQSFLYESRNKNTVA	CASTRES	QQYHRLPLS	2.22 / 1.68 / 1.02	0 of 9
KSFQSVGYESRNKNSVT	WASTRES	QQYHRLPLS	ND / ND / ND	1 of 9 (3.43)
KSSQSVLYESRNKNSVA	WASHSES	QQYHRLPLC	4.32 / ND / ND	4 of 9 (4.51)
KSSQAVWYESRNKNSVA	WESTRES	QQYHRLPLS	2.46 / 2.29 / 2.62	1 of 9 (4.10)
KSSQSDLYESDNKNSVA	WASTRES	QQYHRLPLS	0.20 / 0.66 / 0.36	1 of 9 (3.83)
KSSQSVLYESRNLNSVA	WASTREK	QPYHRLPLS	ND / 3.86 / ND	2 of 9 (4.48)
KSSQSVVYESTNKNSVA	QASTRES	QQYHRLPLS	0.04 / 0.32 / 0.13	2 of 9 (4.34)
KSSQSVLYQERNKNSVA	WASTRES	QQYHRLPHS	ND / ND / ND	1 of 9 (2.08)
KSSQCVLYEHRNSNSVA	WASTRES	QQYHRLPLS	3.04 / 2.59 / 2.40	1 of 9 (4.83)
FSSQSVLYESRNKNSVA	WHSTRES	LQYHRLPLS	ND / ND / 4.01	0 of 9
KSSQSVLYWSRNKNSTA	WASTRES	QQYHRMPLS	5.05 / 3.58 / ND	3 of 9 (3.79)
KSQQSNLYESRNKNSVA	WASTKES	QQYHRLPLS	2.53 / 2.12 / 2.48	3 of 9 (3.80)
KSSESVLYQSRNKNSVA	WASTRES	QAYHRLPLS	1.63 / 1.61 / 1.68	5 of 9 (3.95)
KSSQSVLYESRNKNSVA	WASTCES	QQYHRLPLS	3.19 / 2.69 / 4.72	4 of 9 (4.56)
KSSQSVLMESRNKNSVA	WASTRES	QQYHRLPLS	1.78 / 1.48 / 1.92	0 of 9
KSSQSVLYEPRNKNSVA	WASTRES	DMYHRLPLS	ND / ND / ND	1 of 9 (3.42)
KSSQSVLYESRNKNEVA	WTCTRES	QQYHRLPLS	ND / ND / ND	0 of 9
KSSQSQLYESRNKDSVA	QASTRES	QQYHRLPLS	-0.65 / -0.13 / -0.39	0 of 9
KSSASVLYESRIKNSVA	WASTRES	QQYHRLDLS	1.48 / 1.51 / 2.51	2 of 9 (3.54)
KSSQSVLYESRNKNSVA	WADTRES	QSYNRLPLS	1.41 / 1.37 / 1.80	0 of 9
KSSQSVCYESRNKNSFA	WASTRSS	QQYHRLPLS	ND / 3.59 / ND	3 of 9 (4.80)

Top 8 of the variants detected in all replicates, tightest first:

{"CDR-L1": "KSSQSQLYESRNKDSVA", "CDR-L2": "QASTRES", "CDR-L3": "QQYHRLPLS", "log10 Kd (nM) by replicate": "-0.65 / -0.13 / -0.39", "signal with controls": "0 of 9"}
{"CDR-L1": "KTSQSVLYDSRNKNNVA", "CDR-L2": "WASTRES", "CDR-L3": "QQYHRLPLS", "log10 Kd (nM) by replicate": "-0.38 / -0.02 / -0.24", "signal with controls": "2 of 9 (3.96)"}
{"CDR-L1": "HSSQSVLMESRNKNSVA", "CDR-L2": "GASTRES", "CDR-L3": "QQYHRLPLS", "log10 Kd (nM) by replicate": "-0.26 / 0.10 / -0.13", "signal with controls": "5 of 9 (4.96)"}
{"CDR-L1": "KSSQSVVYESTNKNSVA", "CDR-L2": "QASTRES", "CDR-L3": "QQYHRLPLS", "log10 Kd (nM) by replicate": "0.04 / 0.32 / 0.13", "signal with controls": "2 of 9 (4.34)"}
{"CDR-L1": "KSSQSDLYESDNKNSVA", "CDR-L2": "WASTRES", "CDR-L3": "QQYHRLPLS", "log10 Kd (nM) by replicate": "0.20 / 0.66 / 0.36", "signal with controls": "1 of 9 (3.83)"}
{"CDR-L1": "KLSQSVLYESRNKNSVA", "CDR-L2": "WASTREV", "CDR-L3": "QQYHRQPLS", "log10 Kd (nM) by replicate": "0.67 / 0.78 / 0.70", "signal with controls": "1 of 9 (4.64)"}
{"CDR-L1": "KSSQSVLYHSYNKNSVA", "CDR-L2": "WASTRES", "CDR-L3": "QQYKRLPLS", "log10 Kd (nM) by replicate": "0.64 / 0.73 / 0.78", "signal with controls": "1 of 9 (5.27)"}
{"CDR-L1": "KSSGSVLYESQNKNSVA", "CDR-L2": "WASTRIS", "CDR-L3": "QQYHRLPLS", "log10 Kd (nM) by replicate": "0.66 / 0.86 / 0.81", "signal with controls": "6 of 9 (4.71)"}